We go through nine substances from article PMC8237038 (Acta Pharmacologica Sinica, 2021).

The chains behind the UniProt entries cited, without tags or fusion partners. Residues count along the entry.
UniProt P08684, 2-503: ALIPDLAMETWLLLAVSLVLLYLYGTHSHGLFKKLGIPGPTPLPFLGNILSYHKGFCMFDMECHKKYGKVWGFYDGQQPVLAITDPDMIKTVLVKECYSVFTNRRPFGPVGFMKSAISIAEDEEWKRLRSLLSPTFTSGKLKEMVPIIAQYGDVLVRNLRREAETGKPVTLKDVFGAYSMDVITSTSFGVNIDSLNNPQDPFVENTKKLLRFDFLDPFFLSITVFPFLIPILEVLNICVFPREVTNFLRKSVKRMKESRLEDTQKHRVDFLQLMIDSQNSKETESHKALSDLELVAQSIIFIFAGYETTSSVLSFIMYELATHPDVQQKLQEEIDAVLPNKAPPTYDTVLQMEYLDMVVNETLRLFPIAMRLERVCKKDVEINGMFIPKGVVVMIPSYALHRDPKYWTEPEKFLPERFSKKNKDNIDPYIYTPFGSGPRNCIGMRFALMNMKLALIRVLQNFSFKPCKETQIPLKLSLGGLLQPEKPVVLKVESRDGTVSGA

Read-outs that look alike come from different tables or passages of the source. Where only a bound is given, the exact number is not on record here.

The target in this data set is CYP3A (Homo sapiens, UniProt P08684). The settings on record: for Ratio: IC50 3 min / 33 min preincubation.
Setting [1] is: read-out: Time-dependent inhibition IC50 Preincubation for 3 min, constituents, HLMs, 3 min preincubation.
Where [2] appears, read: read-out: Time-dependent inhibition IC50 Preincubation for 33 min, constituents, HLMs, 33 min preincubation.
[3] abbreviates: 100 μM, HLMs, 3 min or 33 min preincubation, inhibition slightly time dependent.

Usually IC50 stands for the concentration that inhibits the measured activity by half. Turning to Licochalcone B, the Ratio (constituents) amounted to 2.07. The IC50 was 14.1 ± 1.55 µM under setting [1] and 6.81 ± 0.66 µM under setting [2].

As to Isochlorogenic acid C, the “inhibitory effects against CYP3A” value under setting [3] was “weak inhibitory effects”. Further, the 50% inhibitory concentration (IC50) runs as follows: under setting [1], above 100 µM; under setting [2], above 100 µM.

Turning to Cryptochlorogenic acid, the “inhibitory effects against CYP3A” value under setting [3] is reported as “weak inhibitory effects”. Further, the IC50 is above 100 µM under setting [1] and above 100 µM under setting [2].

As to Isochlorogenic acid B, the “inhibitory effects against CYP3A” value under setting [3] is given as “weak inhibitory effects”. In addition, the IC50 under setting [1] is above 100 µM and the half-maximal inhibitory concentration (IC50) under setting [2] was above 100 µM.

As for Neochlorogenic acid, where the note is “microsomes”, the half-maximal inhibitory concentration (IC50) was above 100 µM and the “inhibitory effects against CYP3A” value is “weak inhibitory effects”.

Take Rutinum: under “microsomes”, the half-maximal inhibitory concentration (IC50) was above 100 µM.

For Isochlorogenic acid A, the “inhibitory effects against CYP3A” value under setting [3] was “weak inhibitory effects”. In addition, the IC50 is above 100 µM under setting [1] and above 100 µM under setting [2].

With Licochalcone A, for the setting “constituents”, the Ratio was found to be 2.15. The half-inhibitory concentration (IC50) under setting [1] is 2 ± 0.1 µM and the 50% inhibitory concentration (IC50) under setting [2] is 0.93 ± 0.04 µM.

Take Licochalcone C: under “constituents”, the Ratio amounted to 2.40. The IC50 came to 6.02 ± 0.41 µM under setting [1] and 2.51 ± 0.12 µM under setting [2].
